Reference: US11472791B2 (dated 2022)

Chains of the proteins cited; added tags and fusions are not shown. Residues count along the entry.
UniProt O60674, 828-1132: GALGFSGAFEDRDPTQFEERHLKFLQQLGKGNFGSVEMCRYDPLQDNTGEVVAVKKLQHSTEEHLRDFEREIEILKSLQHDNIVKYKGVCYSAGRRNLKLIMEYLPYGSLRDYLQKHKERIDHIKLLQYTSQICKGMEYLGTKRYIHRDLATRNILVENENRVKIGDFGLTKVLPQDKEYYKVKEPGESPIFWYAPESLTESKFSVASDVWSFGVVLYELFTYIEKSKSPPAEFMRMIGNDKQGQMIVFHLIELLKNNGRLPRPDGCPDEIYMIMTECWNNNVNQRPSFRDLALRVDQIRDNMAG

Key:
Assay type in all cases: biochemical
JAK2 = JAK2 (Homo sapiens (Human), UniProt O60674); assay: JAK inhibitory activity assay (JAK2)
CDK2/Cyclin E1 = CDK2/Cyclin E1 (Homo sapiens (Human), UniProt P24941); assay: CDK2/Cyclin E1 HTRF enzyme activity assay
human JAK1 = human JAK1 (Homo sapiens, UniProt P23458); assay: JAK inhibitory activity assay (JAK1)

For [2H]C([2H])([2H])NCc1ccc(-n2cc(-c3nc(NC4CCN(S(C)(=O)=O)CC4)ncc3C#N)cn2)c(Cl)c1 [Example 138, 4-(1-(2-Chloro-4-(((methyl-d3)amino)methyl)phenyl)-1H-pyrazol-4-yl)-2-((1-(methylsulfonyl)piperidin-4-yl)amino)pyrimidine-5-carbonitrile], the IC50 (JAK2) was ≥ 10 µM, the IC50 (CDK2/Cyclin E1) was < 0.05 µM and the IC50 (human JAK1) was ≥ 10 µM.
In the case of CNCc1ccc(-n2cc(-c3nc(NC4CCN(S(C)(=O)=O)CC4)ncc3C#N)cn2)c(Cl)c1 [Example 113, 4-(1-(2-Chloro-4-((methylamino)methyl)phenyl)-1H-pyrazol-4-yl)-2-((1-(methylsulfonyl)piperidin-4-yl)amino)pyrimidine-5-carbonitrile], the IC50 (JAK2) is reported as ≥ 10 µM, the IC50 (CDK2/Cyclin E1) is reported as < 0.05 µM and the IC50 (human JAK1) is reported as ≥ 10 µM.
